Results as given in ChEMBL document CHEMBL4041501, “Isolation of Acacetin from Calea urticifolia with Inhibitory Properties against Human Monoamine Oxidase-A and -B” (J Nat Prod, 2016).

By UniProt entry, the sequences of proteins in these tests, tags left out.
UniProt P21397, whole entry: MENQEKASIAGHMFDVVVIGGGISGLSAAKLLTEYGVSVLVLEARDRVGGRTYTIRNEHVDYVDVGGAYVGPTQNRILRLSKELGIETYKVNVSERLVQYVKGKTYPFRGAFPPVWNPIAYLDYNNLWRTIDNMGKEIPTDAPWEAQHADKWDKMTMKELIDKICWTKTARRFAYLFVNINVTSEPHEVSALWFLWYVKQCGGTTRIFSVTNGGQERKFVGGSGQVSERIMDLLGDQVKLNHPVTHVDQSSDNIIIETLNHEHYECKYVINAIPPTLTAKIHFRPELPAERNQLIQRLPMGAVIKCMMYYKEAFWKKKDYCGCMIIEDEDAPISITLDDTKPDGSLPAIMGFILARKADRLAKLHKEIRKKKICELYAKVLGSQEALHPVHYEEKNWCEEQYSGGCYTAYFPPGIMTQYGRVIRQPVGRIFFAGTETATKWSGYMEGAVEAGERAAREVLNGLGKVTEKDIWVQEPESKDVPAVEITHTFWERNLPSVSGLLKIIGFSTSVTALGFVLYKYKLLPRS

Target: Amine oxidase [flavin-containing] A (Homo sapiens, UniProt P21397)
Experiment: Inhibition of recombinant human MAO-A assessed as reduction in 4-hydroxyquinoline formation using kynuramine as substrate after 20 mins by fluorometric assay

NNCCc1ccccc1 [PHENELZINE]
IC50: 238 nM
